For the experiment, the target named is recombinant human glandular kallikrein 2 (hK2) (human) (UniProt P20151). As to the kind of experiment: cell-based or functional assay.

Regarding Aprotinin (from UniProt P00974 36-93), the hK2 Activity (%) of inhibitor-free control, inhibitor at 5 µM stood at 10% and the hK2 Activity (%) of inhibitor-free control, inhibitor at 30 µM was found to be 33%.

The values are drawn from patent publication US20120309692A1.
